Measured values as given in PubChem BioAssay AID504700 (The Scripps Research Institute Molecular Screening Center, 2011).
This is a selection; strong and weak results do not stand in their true shares. The source made the active and inactive calls.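 The calls were made as follows: active = activation above a cutoff set at the mean over all compounds plus 3 SD (cut at about 18% in these data); inactive = the rest.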

Protein sequences, listed by entry. Tags and fused reporters are not part of them.
UniProt P31323, whole entry, looked up: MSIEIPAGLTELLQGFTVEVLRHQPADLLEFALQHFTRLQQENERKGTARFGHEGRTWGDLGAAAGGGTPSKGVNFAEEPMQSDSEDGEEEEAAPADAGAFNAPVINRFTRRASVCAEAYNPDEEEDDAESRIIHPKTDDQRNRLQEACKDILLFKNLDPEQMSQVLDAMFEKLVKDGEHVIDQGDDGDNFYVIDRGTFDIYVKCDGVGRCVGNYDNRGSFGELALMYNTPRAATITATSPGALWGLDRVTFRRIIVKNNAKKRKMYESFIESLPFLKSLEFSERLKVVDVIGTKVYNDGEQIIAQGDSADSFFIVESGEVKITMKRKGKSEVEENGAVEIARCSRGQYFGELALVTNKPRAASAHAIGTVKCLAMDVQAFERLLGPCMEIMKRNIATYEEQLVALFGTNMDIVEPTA

Each compound was assayed against cAMP-dependent protein kinase catalytic subunit beta (Homo sapiens) + cAMP-dependent protein kinase type II-beta regulatory subunit (Homo sapiens) (UniProt P22694+P31323) (assay: activators of PKA-R2B holoenzyme, primary screen, biochemical, fluorescence polarization, Cy5-IP20, human (AID 504700;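 also: higher means more holoenzyme dissociation and a rise in polarization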)). Conditions: PKA-R2B holoenzyme dissociation, at 11.4 µM, hits give high values, 0% DMSO only, 100% 113 µM cGMP, R2B truncated from residue 108, S112A mutant.
In the case of `O=C(OC1CN2CCC1CC2)C1c2ccccc2C=Cc2ccccc21` (stereo not given), the activation is reported as inactive: 8.32%.
For `CCOC(=O)N1CCC(Nc2ccc(C)cc2)CC1`, the activation was inactive: -5.94%.
With `N/C(=N\O)c1c(N)no[n+]1[O-]` the activation was inactive: 4.04%.
For `COc1ccc(C(=O)NCC2(N3CCOCC3)CCCCC2)cc1OC`, the activation was inactive: 2.67%.
In the case of `COc1cc(C(=O)NCC2(N3CCOCC3)CCCCC2)cc(OC)c1C`, the activation is reported as inactive: -4.95%.
In the case of `O=C(NCC1(N2CCOCC2)CCCCC1)c1cc(Br)ccc1Cl`, the activation is reported as inactive: -1.52%.
With `CN(C)C1(CNC(=O)c2cccc(C#N)c2)CCCCC1` the activation was inactive: -1.64%.
In the case of `c1ccc(CN2CCC(Nc3ccccc3)CC2)cc1`, the activation is reported as inactive: -4.67%.
For `Cc1cc(N(CCCl)CCCl)ccc1C=O`, the activation was inactive: -7.96%.
In the case of `CCCN1CCC(Nc2cc(OC)cc(OC)c2)CC1`, the activation is reported as inactive: -4.68%.
With `N#Cc1ccc(C(=O)NCC2(N3CCCCC3)CCCCC2)cc1` the activation was inactive: -6.7%.
For `CC(C)(C)OC(=O)N1CCC(N(C(=O)c2ccccc2)c2ccc(Cl)cc2)CC1`, the activation was inactive: -10.6%.
For `O=C(NCC1(N2CCCCC2)CCCCC1)c1ccco1`, the activation was inactive: -3.81%.
With `Cn1c(=O)[nH]cc(N(CCCl)CCCl)c1=O` the activation was inactive: 5.4%.
With `CN(C)c1ccc(C(=O)NCC2(N3CCCCC3)CCCCC2)cc1` the activation was inactive: 4.17%.
For `Cc1ccccc1NC1(C#N)CCN(Cc2ccccc2)CC1`, the activation was inactive: 2.4%.
`CCN1CCC(Nc2cccc(F)c2)CC1` was tested, and the activation was inactive: 1.68%.
With `Cc1ccc(C(=O)NCC2(N3CCCCC3)CCCCC2)o1` the activation was inactive: -3.84%.
`Fc1ccccc1NC1CCN(Cc2ccccc2)CC1` was tested, and the activation was inactive: 1.79%.
In the case of `Cc1ccc(NC2(C#N)CCN(Cc3ccccc3)CC2)cc1`, the activation is reported as inactive: -0.55%.
With `CC(=O)N(c1ccccc1)C1CCNCC1` the activation was inactive: 1.47%.
In the case of `COc1cc(OC)cc(C(=O)NCC2(N3CCCCC3)CCCCC2)c1`, the activation is reported as inactive: 1.89%.
With `CN1CCC(Nc2ccc(Cl)cc2)CC1` the activation was inactive: -0.15%.
In the case of `COc1cccc(C(=O)N(c2cc(C)cc(C)c2)C2CCN(C(=O)OC(C)(C)C)CC2)c1`, the activation is reported as inactive: 7.46%.
With `COc1cc(OC)cc(C(=O)NCC2(N3CCOCC3)CCCCC2)c1` the activation was inactive: 6.13%.
For `CCC(CO)(C(=O)OC1CN2CCC1CC2)c1ccccc1` (stereo not given), the activation was inactive: -1.75%.
With `CC(C)(C)OC(=O)N1CCC(Nc2ccccc2)CC1` the activation was inactive: -11.2%.
`O=C(O)C1(Nc2ccccc2)CCN(Cc2ccccc2)CC1` was tested, and the activation was inactive: 3.7%.
`CCCOc1ccc(C(=O)NCC2(N(C)C)CCCCC2)cc1` was tested, and the activation was inactive: -8.03%.
For `CCOc1ncccc1C(=O)NCC1(N2CCOCC2)CCCCC1`, the activation was inactive: 1.66%.
In the case of `CN1CCC(Nc2ccc(F)c(Cl)c2)CC1`, the activation is reported as inactive: 3.3%.
`O=C(OC1CN2CCC1CC2)C1c2ccccc2Oc2ccccc21` (stereo not given) was tested, and the activation was inactive: -9.02%.
`O=C(NCC1(N2CCCCC2)CCCCC1)c1ccc(Cl)s1` was tested, and the activation was inactive: 7.16%.
For `N#CC1(Nc2ccccc2)CCN(Cc2ccccc2)CC1`, the activation was inactive: 9.8%.
`COc1ccc(Cl)cc1C(=O)NCC1(N2CCOCC2)CCCCC1` was tested, and the activation was inactive: -6.57%.
For `CCOC(=O)N1CCC(Nc2ccc(OC)cc2)CC1`, the activation was inactive: -0.52%.
In the case of `O=C(NCC1(N2CCCCC2)CCCCC1)c1ccc(Cl)nc1`, the activation is reported as inactive: 0.75%.
`Cc1cc(C)cc(N(C(=O)c2ccccc2)C2CCN(C(=O)OC(C)(C)C)CC2)c1` was tested, and the activation was inactive: 5.73%.
In the case of `O=C(NCC1(N2CCOCC2)CCCCC1)c1cc2ccccc2o1`, the activation is reported as inactive: 0.15%.
In the case of `CSc1ccccc1C(=O)NCC1(N2CCCCC2)CCCCC1`, the activation is reported as inactive: 6.24%.
In the case of `Cc1cccc(NC2(C#N)CCN(Cc3ccccc3)CC2)c1`, the activation is reported as inactive: 1.3%.
For `COc1ccc(C(=O)NCC2(N3CCCCC3)CCCCC2)cc1`, the activation was inactive: 1.08%.
With `CC(C)(C)OC(=O)N1CCC(N(C(=O)c2ccccc2)c2ccc(F)cc2)CC1` the activation was inactive: 8.55%.
With `COc1ccc(C(=O)NCC2(N3CCCCC3)CCCCC2)c(OC)c1OC` the activation was inactive: -3.47%.
`O=C(NCC1(N2CCCCC2)CCCCC1)c1ccc(=O)[nH]c1` was tested, and the activation was inactive: 4.93%.
With `O=C(NCC1(N2CCCCC2)CCCCC1)c1cccs1` the activation was inactive: -2.44%.
In the case of `COc1cc(C(=O)NCC2(N(C)C)CCCCC2)ccc1OC(F)F`, the activation is reported as inactive: -12.4%.
With `CCOC(=O)N1CCC(Nc2cccc(C)c2)CC1` the activation was inactive: 0.74%.
In the case of `O=C(NCC1(N2CCCCC2)CCCCC1)c1ccc(F)cc1`, the activation is reported as inactive: 4.82%.
In the case of `CCCCOc1ccc(C(=O)NCC2(N3CCOCC3)CCCCC2)cc1`, the activation is reported as inactive: 4.69%.
`O=P1(N(CCCl)CCCl)SCCCS1` was tested, and the activation was inactive: 3.36%.
With `CCOC(=O)N1CCC(Nc2ccc(F)cc2)CC1` the activation was inactive: -2.74%.
In the case of `COc1ccc(NC2CCN(CCc3ccccc3)CC2)c(OC)c1`, the activation is reported as inactive: 4.23%.
`O=C1CCN(Cc2ccccc2)CC1` was tested, and the activation was inactive: -1.29%.
With `CCOc1ccc(C)cc1CN(CCCl)CCCl` the activation was inactive: 1.93%.
With `O=C(NCC1(N2CCOCC2)CCCCC1)c1cc(=O)[nH]c2ccccc12` the activation was inactive: 6.9%.
`COc1cc(C(=O)NCC2(N3CCCCC3)CCCCC2)ccc1OC(F)F` was tested, and the activation was inactive: -3.82%.
For `CC(C)c1ccc(C(=O)NCC2(N3CCOCC3)CCCCC2)cc1`, the activation was inactive: -7.54%.
With `COc1ccc(NC2CCN(C(=O)OC(C)(C)C)CC2)cc1` the activation was inactive: -3.76%.
`CN1CCN(CCOC(=O)C(O)(c2ccccc2)c2ccccc2)CC1` was tested, and the activation was inactive: -18.1%.
`O=C(NCC1(N2CCCCC2)CCCCC1)c1cccc(C(F)(F)F)c1` was tested, and the activation was inactive: -7.38%.
For `CCN1CCC(Nc2ccc(Cl)cc2)CC1`, the activation was inactive: 1.25%.
With `N#CC1(Nc2ccccc2)CCN(CCc2ccccc2)CC1` the activation was inactive: -2.49%.
With `O=C(NCC1(N2CCCCC2)CCCCC1)c1cccc([N+](=O)[O-])c1` the activation was inactive: -1.55%.
`CSc1ccc(C(=O)NCC2(N3CCOCC3)CCCCC2)cc1` was tested, and the activation was inactive: -3.31%.
In the case of `O=C(NCC1(N2CCCCC2)CCCCC1)c1ccc(OC(F)F)cc1`, the activation is reported as inactive: -7.85%.
In the case of `Cc1ccc(C(=O)NCC2(N(C)C)CCCCC2)o1`, the activation is reported as inactive: -1.64%.
In the case of `CCCOc1ccc(C(=O)NCC2(N(C)C)CCCCC2)cc1OC`, the activation is reported as inactive: -5.22%.
In the case of `O=C(NCC1(N2CCCCC2)CCCCC1)c1cncc(Br)c1`, the activation is reported as inactive: 4.26%.
In the case of `CN1CCC(Nc2cccc(F)c2)CC1`, the activation is reported as inactive: 9.7%.
In the case of `COc1cc(OC)c(C(=O)NCC2(N(C)C)CCCCC2)cc1OC`, the activation is reported as inactive: -5.23%.
In the case of `O=C(NCC1(N2CCOCC2)CCCCC1)c1cc(F)c(F)cc1Cl`, the activation is reported as inactive: 0.51%.
With `CC(C)c1ccc(NC2CCN(C(=O)OC(C)(C)C)CC2)cc1` the activation was inactive: 1.68%.
With `COc1ccc(CN(CCCl)CCCl)cc1Cl` the activation was inactive: -11.2%.
With `CN(C)c1cccc(C(=O)NCC2(N3CCCCC3)CCCCC2)c1` the activation was inactive: -5.41%.
